Experimental data as given in patent publication US20050148505A1, “Genes and agents to regulate follicular development, ovulation cycle and steriodogenesis” (priority 2003, published 2005).

Test system: CTBP mRNA
Experiment: In situ hybridization of ovaries of immature rats primed with PMSG and hCG
Type: in vivo, rat
Conditions: PMSG-primed rats additionally primed with hCG for 6 h; high level persisted in small follicles
Method: FIG. 4. Follicular stage dependent expression of CTBP mRNA. Immature 22-23 day old rats were primed with a single injection of PMSG for 0 (A), 3 (B), 6 (C), 24 (D) and 48 (E) h, followed by priming with an hCG injection for 1 (F) and 6 h (G, H). The ovaries were excised, sectioned and hybridized with the CTBP antisense probe (A-G) or inhibin a antisense probe (H). In addition to the dark field autoradiographs in the left panel, the corresponding bright field images of hematoxylin staining are aligned in the right panels. Arrows and arrowheads indicate preantral and early antral follicles, respectively. PO, preovulatory follicle; AtF, atretic follicle. 40× magnification.
All animals were handled according to the guidelines for care and use of animals set by the National Institutes of Health and the University of Kentucky Institutional Animal Care and Use Committee. Eighteen to twenty-one day old Sprague-Dawley female pups with nursing mothers were purchased from Harlan Breeding Company (Indianapolis, Ind.) and housed in a photoperiod of 14 h light/10 h darkness with light on at 0500 h. For in situ hybridization analysis, rats were injected s.c. with 15 IU PMSG in 0.1 ml PBS at 22 or 23 days of age. Some of the rats primed with PMSG for 48 h were additionally injected i.p. with 10 IU hCG. […]

hCG: hCG purchased from the National Hormone and Peptide Program; used to prime rats after PMSG
CTBP signal in large antral follicles, particularly preovulatory follicles: completely abolished
